{
  "source": "patent US10993983B2",
  "about": "“Cyclic peptide epitopes and small-molecule mimics for inducing autophagy” (TRUSTEES OF TUFTS COLLEGE, priority 2016, dated 2021)",
  "origin": "cited, not measured here",
  "settings": "background; cited from earlier work",
  "data": [
    {"sequence": "YGRKKRRQRRRGGTNVFNATFEIWHDGEFGT [Tat-Beclin 1]", "values": [
      {"measurement": "cytotoxicity, result in words", "value": "cytotoxic at high concentrations or following prolonged treatment"}
    ]}
  ]
}
